Drawing on article PMC10341573, “Design, Synthesis, and Biological Evaluation of Novel Quinazolin-4(3H)-One-Based Histone Deacetylase 6 (HDAC6) Inhibitors for Anticancer Activity” (International Journal of Molecular Sciences, 2023), this text covers IC50 for one compound.

Sequences of proteins named here, by UniProt entry; tags and fusion partners are left off. Residues count along the entry.
UniProt P56524, 648-1057: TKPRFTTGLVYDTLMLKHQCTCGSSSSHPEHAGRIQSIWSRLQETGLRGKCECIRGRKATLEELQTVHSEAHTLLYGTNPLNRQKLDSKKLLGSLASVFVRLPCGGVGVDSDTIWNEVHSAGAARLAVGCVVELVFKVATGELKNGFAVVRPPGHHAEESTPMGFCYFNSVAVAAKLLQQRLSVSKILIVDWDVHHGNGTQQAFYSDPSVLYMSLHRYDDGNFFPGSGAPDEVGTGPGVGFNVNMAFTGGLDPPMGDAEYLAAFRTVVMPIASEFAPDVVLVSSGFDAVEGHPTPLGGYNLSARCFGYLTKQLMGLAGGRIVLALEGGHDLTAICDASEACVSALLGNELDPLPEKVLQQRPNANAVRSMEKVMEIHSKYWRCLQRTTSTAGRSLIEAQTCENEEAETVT

In this assay the target is T1, HDAC4 (Homo sapiens, UniProt P56524).
T1 construct: catalytic domain of HDAC4 (T648-T1057, full length: UniProt P56524); made in house; host or cells: E. coli BL21(DE3), pET14b vector
Kind of assay: HDAC enzyme activity assay (fluorogenic, Boc-Lys(trifluoroacetyl)-AMC), HDAC4. In kind it is biochemical.

The IC50 is the concentration that gives 50% inhibition. Low readings indicate greater potency in that assay, high ones weaker potency in that assay. For `CN1CCc2c(c3ccccc3n2Cc2ccc(C(=O)NO)cc2)C1` [Tubastatin, reference compound], the half-inhibitory concentration (IC50) worked out at 4.7 ± 1.5 µM.
